Ab-91 heavy chain CDR variants: yeast mating affinities

Source: Engelhart et al. 2022 (doi:10.1038/s41597-022-01779-4), MIT Lincoln Laboratory and A-Alpha Bio; data file from the FLAb repository.

All variants were tested on one target, the spike HR2 peptide PDVDLGDISGINAS (SARS-CoV-2).

Ab-91 is the parent antibody, in scFv form: VL, then a (GGGGS)3 linker, then VH. The light chain is unchanged in all variants.
VL: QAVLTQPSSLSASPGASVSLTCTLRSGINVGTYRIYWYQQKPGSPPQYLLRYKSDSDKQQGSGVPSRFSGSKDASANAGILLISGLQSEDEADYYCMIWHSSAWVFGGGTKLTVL
VH: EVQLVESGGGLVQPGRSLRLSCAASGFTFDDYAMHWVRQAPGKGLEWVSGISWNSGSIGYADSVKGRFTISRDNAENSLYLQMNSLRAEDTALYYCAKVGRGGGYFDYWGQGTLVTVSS

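Variants in AAYL51 differ from the parent at up to three CDR positions; double and triple changes were sampled at random. In AlphaSeq, yeast of one mating type display the scFv and yeast of the other type display the target. Binding brings cells together so that they mate, and sequencing counts the barcode pairs among the diploids. Read counts were normalised to the haploid input and turned into Kd by a linear fit to BCL2-family pairs of known affinity, for each replicate. The assay was run in three technical replicates.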

Changes read parent residue, position, new residue, counted from the first residue of the VH shown. Scale: log10 of Kd in nM, estimated from mating counts; low values are strong binders. "nd" marks a missing value. The strain was present, yet no cells mated with the target were sequenced in that replicate, which points to weak or no binding. Empty control strains, which show no peptide, gave a signal in 21% of pairings with library AAYL51; the median was 4.54 and 95% of these signals were weaker than 3.26. No background was subtracted. For each scFv, signals with the empty controls are counted beside the result, with their mean in brackets.

{"changes": "D30A+G104S", "replicates, log10 nM": "1.22 / 1.17 / 0.69", "empty controls": "2/9 (5.01)"}
{"changes": "F27D+S52M+K65F", "replicates, log10 nM": "5.34 / 6.02 / nd", "empty controls": "2/9 (4.88)"}
{"changes": "D30E+H35M+A61S", "replicates, log10 nM": "nd / nd / 2.69", "empty controls": "1/9 (3.88)"}
{"changes": "D30S+M34N+F106A", "replicates, log10 nM": "nd / nd / nd", "empty controls": "4/9 (4.23)"}
{"changes": "W53Q+N54W+A61H", "replicates, log10 nM": "2.76 / nd / nd", "empty controls": "0/9"}
{"changes": "A33E+V99Y+D107A", "replicates, log10 nM": "nd / nd / nd", "empty controls": "0/9"}
{"changes": "Y32E+I51P+Y108Q", "replicates, log10 nM": "nd / nd / 5.11", "empty controls": "2/9 (5.01)"}
{"changes": "T28F+D31L+H35P", "replicates, log10 nM": "nd / nd / 3.58", "empty controls": "0/9"}
{"changes": "H35R+I51F+G56S", "replicates, log10 nM": "4.41 / 5.07 / 6.37", "empty controls": "9/9 (5.25)"}
{"changes": "M34I+G104M", "replicates, log10 nM": "nd / nd / nd", "empty controls": "0/9"}
{"changes": "N54P+G59E+Y60G", "replicates, log10 nM": "nd / nd / nd", "empty controls": "2/9 (5.13)"}
{"changes": "H35G+I58L+G102Y", "replicates, log10 nM": "nd / nd / nd", "empty controls": "2/9 (3.83)"}
{"changes": "I51P+V64I", "replicates, log10 nM": "nd / nd / nd", "empty controls": "3/9 (4.51)"}
{"changes": "T28Y+A61N+G100A", "replicates, log10 nM": "4.90 / 5.98 / nd", "empty controls": "3/9 (4.37)"}
{"changes": "M34A+S63P+V99N", "replicates, log10 nM": "nd / 3.44 / nd", "empty controls": "0/9"}
{"changes": "G56L+S63Q+Y105P", "replicates, log10 nM": "nd / nd / nd", "empty controls": "0/9"}
{"changes": "T28G+I51M+Y105K", "replicates, log10 nM": "nd / nd / nd", "empty controls": "3/9 (3.70)"}
{"changes": "I51L+S55W+Y108S", "replicates, log10 nM": "nd / nd / 3.62", "empty controls": "1/9 (3.96)"}
{"changes": "D31A+M34A+I58Y", "replicates, log10 nM": "nd / nd / nd", "empty controls": "1/9 (4.53)"}

Again, the first 3 entries without any signal:

{"changes": "D30S+M34N+F106A", "replicates, log10 nM": "nd / nd / nd", "empty controls": "4/9 (4.23)"}
{"changes": "A33E+V99Y+D107A", "replicates, log10 nM": "nd / nd / nd", "empty controls": "0/9"}
{"changes": "M34I+G104M", "replicates, log10 nM": "nd / nd / nd", "empty controls": "0/9"}